Amino acid sequences for entries named in this document (tags omitted).
Protein AF-9 (Homo sapiens), P42568, UniProt P42568, whole entry, looked up: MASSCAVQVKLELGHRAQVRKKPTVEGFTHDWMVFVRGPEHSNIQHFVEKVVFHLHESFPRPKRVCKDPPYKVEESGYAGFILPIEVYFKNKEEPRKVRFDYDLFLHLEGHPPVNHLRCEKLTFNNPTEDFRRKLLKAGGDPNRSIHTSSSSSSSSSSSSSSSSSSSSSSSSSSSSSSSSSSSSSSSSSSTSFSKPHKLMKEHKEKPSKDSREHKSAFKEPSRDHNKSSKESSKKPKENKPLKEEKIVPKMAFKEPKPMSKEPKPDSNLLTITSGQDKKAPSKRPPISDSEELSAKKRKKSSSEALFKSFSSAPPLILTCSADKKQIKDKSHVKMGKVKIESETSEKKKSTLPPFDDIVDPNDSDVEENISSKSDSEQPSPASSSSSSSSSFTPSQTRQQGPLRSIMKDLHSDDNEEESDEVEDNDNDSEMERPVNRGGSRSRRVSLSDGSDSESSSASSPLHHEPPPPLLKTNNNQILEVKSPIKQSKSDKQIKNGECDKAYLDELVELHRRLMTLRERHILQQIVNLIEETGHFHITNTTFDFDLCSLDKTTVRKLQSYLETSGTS

# SIRT5 block – SIRT5 desuccinylase inhibitors, primary screen, biochemical, fluorescence imaging, single point, set 5; Purified SirT5, succinyl-peptide AMC, trypsin-coupled fluorescence; inhibition, % at 15 µM; 1.1% of 330,000 active; AID 652115, 2013; in the data active = inhibition above about 15%
# AF4-AF9 inh – inhibitors of AF4 peptide binding to AF9, primary screen, biochemical, AlphaScreen, biotin-AF4 peptide, FLAG-AF9, single point. Protein AF-9 (Homo sapiens), P42568. inhibition, % at 10 µM. 0.47% of 350,000 active. AID 651704, 2012;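 active = every replicate reaching a set inhibition limit, whatever the replicate mean, cut at about 25% in these data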;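 also: 0% = plate neutral control median and 100% = total signal loss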
# RAD52 inh – RAD52 DNA annealing inhibitors, primary screen, biochemical, FRET, single point, set 2; recombinant RAD52 DNA annealing, FRET fluorescence; 0.46% of 360,000 active; inhibition, % at 18.7 µM; AID 651710, 2012;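 active = every replicate showing at least 50% inhibition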
# UUG fidelity – alters start codon recognition fidelity in yeast | S. cerevisiae UUG-firefly luciferase reporter, luminescence/redox ratio | activity score, % at 18.7 µM | 350,000 compounds, 0.13% hits | AID 602363;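 active = replicate mean at a twofold rise or more, about +100% in these data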;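 note: firefly luciferase made from a UUG start codon reports start codon fidelity; reporter light over untreated wells divided by growth signal over untreated wells; some hits fall short of that in this replicate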
# RAD54 inh – inhibitors of human RAD54 branch migration, primary screen, biochemical, fluorescence, single point; RAD54 Holliday junction branch migration, FAM/BHQ fluorescence; inhibition, % at 10.4 µM; 0.14% of 360,000 active; AID 602329, 2012; DNA repair and recombination protein RAD54-like (Homo sapiens), Q92698;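 active = mean normalized replicate activity at least 40 and at least half of replicates scoring 40 or more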;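 also: 0% = median of neutral control wells and 100% = median of positive control wells; inhibitors cause a drop in the FAM fluorescence signal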
# E-sel inducer – E-selectin induction in HUVECs, primary screen, imaging, HUVEC, immunofluorescence imaging, single point | P16581 | normalized: neutral wells 0, TNF-alpha wells 100 | activation, % at 7.58 µM | 0.37% of 260,000 active;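 active = mean E-selectin-positive cell signal at least 10% of the positive control, reached in at least 60% of replicates, without over 20% cell loss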
#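 Assay system: HUVEC, human umbilical vein endothelial cells / Amount: 3,000 HUVEC/well / Controls: TNF-alpha positive control, DMSO neutral control / Compound dosing: single concentration / Medium: EGM-2 over gelatin coat / Evaluation: percent E-selectin-positive cells / Signal: immunofluorescence imaging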
# Starred values were filed as active, the others as inactive; i = inactive; x = not tested or not shown. A selection: hits, their analogues and other compounds. The true share with any hit is near 1.8%.
SMILES,SIRT5 block,AF4-AF9 inh,RAD52 inh,UUG fidelity,RAD54 inh,E-sel inducer
COc1ccc(S(=O)(=O)N(C)C[C@@H]2OCCCC[C@H](C)Oc3ccc(NC(=O)Nc4ccccc4)cc3C(=O)N([C@H](C)CO)C[C@@H]2C)cc1,x,x,x,-3,3,0
N=C1S/C(=C\c2ccc(-c3ccccc3C(=O)O)o2)C(=O)N1c1ccc2c(c1)OCO2,7,-4,-122,x,x,x
O=C(O)c1ccccc1-c1ccc(/C=C/c2cc(C(F)(F)F)[nH]c(=O)n2)o1,7,-1,i,x,x,28*
O=C(O)c1cc(Cl)ccc1-c1ccc(/C=C/c2cc(C(F)(F)F)[nH]c(=O)n2)o1,20*,-3,i,x,x,x
C[C@H](CO)N1C[C@H](C)[C@@H](CN(C)C(=O)Nc2ccccc2)Oc2c(NC(=O)C3CC3)cccc2C1=O,-2,-4,4,-10,5,0
C[C@H](O)C#Cc1ccc2c(c1)O[C@H](CN(C)Cc1ccccc1)[C@@H](C)CN([C@H](C)CO)S2(=O)=O,0,5,1,1,3,0
C[C@@H]1CN([C@H](C)CO)S(=O)(=O)c2ccc(C#C[C@@H](C)O)cc2O[C@H]1CN(C)Cc1ccc(-c2ccccc2)cc1,30*,-1,5,x,9,0
C[C@H](O)C#Cc1ccc2c(c1)O[C@@H](CN(C)Cc1ccc(-c3ccccc3)cc1)[C@H](C)CN([C@H](C)CO)S2(=O)=O,28*,-2,8,x,-12,0
C[C@@H]1CN([C@@H](C)CO)S(=O)(=O)c2ccc(C#C[C@@H](C)O)cc2O[C@@H]1CN(C)Cc1ccc(-c2ccccc2)cc1,24*,-1,12,x,0,0
C[C@H](O)C#Cc1ccc2c(c1)O[C@H](CN(C)Cc1ccc(-c3ccccc3)cc1)[C@H](C)CN([C@@H](C)CO)S2(=O)=O,27*,2,0,x,2,0
C=CC[C@]1(C(=O)N(C)C)N=C(c2ccc(OCCCO)cc2)O[C@H]1c1ccccc1,0,-5,-3,21,-3,x
C[C@@H]1CN([C@H](C)CO)C(=O)c2cc(C3=CCCC3)cnc2O[C@H]1CN(C)C(=O)CN(C)C,-1,-2,-24,5,-2,0
COc1ccccc1NC(=O)N[C@@H]1CC[C@@H](CCNS(=O)(=O)c2ccccc2)O[C@H]1CO,0,1,7,x,3,0
COc1ccc2c3c([nH]c2c1)[C@@H](CO)N(Cc1ccccc1F)CC31CCN(C(=O)C2CCCC2)CC1,3,x,-84,x,x,-1
C[C@H](O)C#Cc1ccc2c(c1)O[C@H](CN(C)Cc1ccc(-c3ccccc3)cc1)[C@@H](C)CN([C@@H](C)CO)S2(=O)=O,30*,1,6,x,-33,0
C[C@@H](O)C#Cc1ccc2c(c1)O[C@H](CN(C)Cc1ccccc1)[C@@H](C)CN([C@@H](C)CO)S2(=O)=O,3,4,0,-3,8,0
CO[C@H]1CN(C)C(=O)c2cc(NC(=O)Nc3ccc(Cl)cc3)ccc2OC[C@@H](C)N(C)C[C@@H]1C,-2,-5,21,6,-11,1
CCOc1cccc(=O)c2c(C)n(-c3ccc(C(=O)O)cc3)c(C)c12,29*,-4,-126,-4,-12,-2
C[C@H](CO)N1C[C@H](C)[C@H](CN(C)Cc2ccc(Oc3ccccc3)cc2)Oc2ccc(NC(=O)CCC(F)(F)F)cc2C1=O,15*,3,27,10,-2,0
COc1ccc(CN(C)C[C@@H]2Oc3ccc(NC(=O)CCC(F)(F)F)cc3C(=O)N([C@H](C)CO)C[C@H]2C)cc1,29*,-1,-6,-3,7,x
C[C@H](CO)N1C[C@H](C)[C@@H](CN(C)Cc2ccc(Oc3ccccc3)cc2)Oc2ccc(NC(=O)CCC(F)(F)F)cc2C1=O,-1,8,-5,22,1,0

# Three entries out of the list above, ordered by the value under SIRT5 block, lowest first:
Structure | SIRT5 block | AF4-AF9 inh | RAD52 inh | UUG fidelity
C[C@@H]1CN([C@H](C)CO)C(=O)c2cc(C3=CCCC3)cnc2O[C@H]1CN(C)C(=O)CN(C)C | -1 | -2 | -24 | 5
O=C(O)c1cc(Cl)ccc1-c1ccc(/C=C/c2cc(C(F)(F)F)[nH]c(=O)n2)o1 | 20* | -3 | i | x
CCOc1cccc(=O)c2c(C)n(-c3ccc(C(=O)O)cc3)c(C)c12 | 29* | -4 | -126 | -4

# From PubChem
